Experimental data taken from publication PMC9895061, “Celastrol suppresses colorectal cancer via covalent targeting peroxiredoxin 1” (Signal Transduction and Targeted Therapy, 2023).

Columns and labels:
SW620 cells = assay: Cell viability by trypan blue staining, SW620; conditions: 1, 2 μM, 24 h
PRDX1 = biological target: T1, PRDX1 (Homo sapiens, UniProt Q06830); assay: Determination of Kinact and Ki for inhibition of PRDX1's peroxidase activity; type: biochemical
T1 sequence (Q06830 1-199): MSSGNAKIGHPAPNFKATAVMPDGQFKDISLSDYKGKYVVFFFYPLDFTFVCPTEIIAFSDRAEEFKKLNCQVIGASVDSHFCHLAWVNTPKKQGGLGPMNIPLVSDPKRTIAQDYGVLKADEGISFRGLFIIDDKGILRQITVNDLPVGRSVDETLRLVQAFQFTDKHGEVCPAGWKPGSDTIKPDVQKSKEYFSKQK

HCT116 cells = assay: Cell viability by trypan blue staining, HCT116; conditions: 1, 2 μM, 24 h

Structure (SMILES): CC1=C(O)C(=O)C=C2C1=CC=C1[C@@]2(C)CC[C@@]2(C)[C@@H]3C[C@](C)(C(=O)O)CC[C@]3(C)CC[C@]12C [Celastrol]
- cell viability at high concentrations, SW620 (in words) (SW620 cells): significantly decreased cell viability
- kinact (PRDX1): 0.00333 s⁻¹
- cell viability at high concentrations, HCT116 (in words) (HCT116 cells): significantly decreased cell viability
